Antibody variant affinities, Ab-14 light chain, assay 1

Target peptide (SARS-CoV-2 spike, HR2 region): PDVDLGDISGINAS

Parent scFv Ab-14: VH joined to VL by a 15-residue (Gly4Ser)3 linker. Changes lie in the light chain CDRs alone.
VH: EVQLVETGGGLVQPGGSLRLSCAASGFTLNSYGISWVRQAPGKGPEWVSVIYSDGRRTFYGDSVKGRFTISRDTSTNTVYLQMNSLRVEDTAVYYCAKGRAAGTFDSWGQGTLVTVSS
VL: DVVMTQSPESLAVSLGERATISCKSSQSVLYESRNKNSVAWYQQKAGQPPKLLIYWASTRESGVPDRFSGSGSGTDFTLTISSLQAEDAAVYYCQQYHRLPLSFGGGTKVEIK

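The parent was found by panning a naive human phage display library on the peptide. The library (AAYL50) carries one to three amino acid substitutions per variant, with no insertions or deletions. Affinity was read by AlphaSeq, a pooled yeast mating assay with surface-displayed partners. Pairs that bind mate more often; barcode pairs of the diploids are counted by sequencing. Scores were corrected for input abundance and mapped to Kd with protein pairs of known affinity run in the same pool. The assay was run in three technical replicates.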

Each variant is given by its three light chain CDRs, as the data file delimits them; those of the parent are KSSQSVLYESRNKNSVA, WASTRES, QQYHRLPLS. Values are log10 of the apparent Kd in nM; lower means stronger binding. "ND" means that the variant was in the library but no mating with the target was seen in that replicate; the authors take this as a sign of poor binding, and no number exists.

CDR-L1,CDR-L2,CDR-L3,"replicates, log10 nM",signal with controls
KSSQSSLYESRNKNSCA,WASTRES,QVYHRLPLS,3.59 / ND / ND,4/9 (4.21)
KSSQSVLYESRNKFEVA,WASTRES,QQYHRRPLS,ND / ND / 3.93,1/9 (4.17)
KSSQSVLYESRFKSSVA,WASTRES,QLYHRLPLS,5.43 / 4.57 / ND,3/9 (4.65)
KSSQSVLYENRNWNSVA,WASTRES,QQYHRYPLS,1.21 / 1.20 / 1.27,3/9 (2.99)
KSYQSVLYESRNKNSVA,VASTRES,QQYHRLPLS,ND / ND / 4.36,2/9 (4.83)
KSCQSVLYESRNRNSVA,WASTRES,QQYHHLPLS,1.72 / 1.64 / 1.91,3/9 (4.14)
KSWQSVLYESRNKNSVA,WASTIES,QQYHRLPLP,ND / 3.98 / 4.71,4/9 (4.38)
KPSQSVVYESRNKNSVA,WASTRYS,QQYHRLPLS,1.79 / 2.09 / 2.36,2/9 (4.62)
KSSQSVLYCSRNKNSVA,WASSRES,QQYHRLPLS,ND / 2.88 / ND,1/9 (4.07)
KSSQSVLYESRNKNSVA,WAWHRES,QQYFRLPLS,2.00 / ND / 2.92,0/9
KSSQSVLDESRNKFSVA,WASTRES,QQGHRLPLS,ND / ND / ND,3/9 (5.00)
KSSQSWFYESRNKNSVA,WASTRES,QQYHRLPNS,ND / ND / ND,0/9
KSSQSVLYESRNINSVA,RASTRES,QQYHRLPLS,0.81 / 1.01 / 1.10,3/9 (4.29)
KSSQSVLYESRHKNSVA,WAHTRES,QQYHRRPLS,3.87 / ND / ND,0/9
KSSQSVLYWSRTANSVA,WASTRES,QQYHRLPLS,1.74 / 1.76 / 2.05,1/9 (2.58)
KSSQSVLYESRNKNDVA,WASTREQ,QQYHRLPFS,2.07 / 2.16 / 1.94,1/9 (3.54)
KSSQSVLYEWRNKNSVP,WASTREI,QQYHRLPLS,ND / 4.78 / 5.13,4/9 (4.34)
KSSQSVLYESMNKNSVA,WASTRRS,QQYHRLPYS,ND / ND / ND,0/9
KNSQSVLYESRNKNSVA,WASTRES,QQSHRLPLS,ND / ND / ND,0/9
KSSASVLYESRNKNAWA,WASTRES,QQYHRLPLS,3.09 / ND / ND,0/9
KSSQSVLYESRNYNFVA,WASTRES,QQYHHLPLS,ND / 4.31 / ND,2/9 (3.48)
KSSQSVLYESRNVKSVA,WASTRES,QQYHRLPLS,0.84 / 0.96 / 0.99,1/9 (2.53)
ASSQFVLYESRNKNSVA,WASTEES,QQYHRLPLS,ND / 4.71 / ND,0/9
KSSQSVLYESRNKNSVA,WESTRES,QSYHNLPLS,3.08 / ND / ND,1/9 (3.70)
KNSQSHLYESRNKNSVA,WASTRES,QQYHRLPLL,1.81 / 1.71 / 2.09,2/9 (3.10)
KSSQSVLYESRAKNSVA,WASTRYS,QQYKRLPLS,1.18 / 1.29 / 1.21,4/9 (4.75)
CSSQSVLYESRNKNSVA,WASTREK,QQYHRLPLS,2.08 / 2.32 / 2.79,1/9 (4.01)
KSSQSVLYESHNKNSVT,WASTRES,QQYHRLPLS,3.58 / 3.04 / ND,0/9
KSSQSVLYESRNKNDVA,WWSTRES,QQYHYLPLS,ND / ND / ND,0/9
KSSQSVLYESRNKNSVA,GASTRNS,QQYHRLPLS,0.14 / 0.48 / 0.34,5/9 (4.58)
KSSQSVLYESRNKNSVA,WAFTRCS,RQYHRLPLS,ND / ND / ND,0/9
KSSQSVLIESRNKNSVA,KASTRES,QQYHRRPLS,ND / 5.14 / ND,1/9 (4.02)
KSSQSVLTESRNKNSVA,TASTRES,QQYHRLPLE,1.60 / 1.59 / 1.84,4/9 (3.86)
MSSQSVLYESRNKNSVA,WASTRCS,QQYHELPLS,2.83 / 2.84 / 3.37,3/9 (4.17)
KSSQRVLYESRLKNSVA,WASTRES,QQNHRLPLS,ND / ND / ND,3/9 (3.79)
KSSQSVLYESRNTNSVA,WANVRES,QQYHRLPLS,0.06 / 0.21 / -0.05,0/9
KFSQSVLHESRNKNSVA,TASTRES,QQYHRLPLS,-0.64 / -0.17 / -0.42,1/9 (4.73)
KSSQSRLYESRNKNSVA,WASTREM,QQYHRLPLS,1.46 / 1.45 / 1.47,4/9 (4.78)
KSSQSYLYESRNKNSVA,WASTRES,QQYHRLSLS,ND / 3.71 / ND,5/9 (5.04)

Parent in this assay: reference entry 0.65, copy in this library 1.68. As a blank, each scFv also met three strains without target: over library AAYL50, 18% of these pairings were detected, typically at 4.19 and seldom below 2.99. For each scFv, signals with the empty controls are counted beside the result, with their mean in brackets.

From the AlphaSeq antibody data of Engelhart et al. 2022 (doi:10.1038/s41597-022-01779-4), copy in the FLAb collection.